PABP1 MLLE inh: blocks PAM2 peptide binding to the PABP1 MLLE domain | P11940 | inhibition, % at 20 µM | AID 588489 | 360,000 compounds, 0.36% hits | GST-MLLE / FITC-PAM2 fluorescence polarization; in the data active = inhibition above about 35%, passing the limit was not always enough
PABP FP inh: PABP-poly(A) binding inhibition; P11940; AID 2014; 290,000 compounds, 1% hits; calls only at 35 µM; PABP-poly(A) RNA binding, fluorescence polarization;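 note: calls also rest on retests at 20 µM and on dose response follow-up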
Yeast UUG start: modulators of start codon recognition fidelity in yeast; AID 602363; activity score, % at 18.7 µM; S. cerevisiae UUG-firefly luciferase reporter, luminescence/redox ratio; 0.13% of 350,000 active;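 active = replicate mean at a twofold rise or more, about +100% in these data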;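 note: firefly luciferase made from a UUG start codon reports start codon fidelity; reporter light over untreated wells divided by growth signal over untreated wells; some hits fall short of that in this replicate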
eIF4H FP inh: inhibitors of RNA binding by human eIF4H; Q15056; eIF4H fluorescence polarization binding assay; inhibition, % at 35 µM; 290,000 compounds, 0.94% hits;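 note: calls also rest on retests at 20 µM and on dose response follow-up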
Pemphigus Ab inh: blocks pemphigus antibody binding to human desmoglein-3; 310,000 compounds, 0.48% hits; DSG3-coupled beads, scFv-anti-DSG3-GFP binding, flow cytometry; hits give low values; binding (percent of control), % at 10 µM; P32926;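 active = binding more than 3 SD below its plate's average and above zero; inconclusive = below that plate limit but binding exactly zero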;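 note: hits lower antibody fragment binding to DSG3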
Large screens that a line does not name were inactive. Rows were chosen to be rich in hits. Some 1.5% of all compounds tested hit in one or more screens of this group. Unless noted, the rule behind the calls is not given here.

CO[C@H]1CN(C)C(=O)c2ccc(NC(C)=O)cc2OC[C@@H](C)N(C(=O)C2CCCCC2)C[C@H]1C	none (no result: PABP1 MLLE inh, PABP FP inh, eIF4H FP inh, Pemphigus Ab inh)
Cc1ccc(SCC(=O)c2ccc(CC(=O)O)s2)cc1	eIF4H FP inh 74
O=C(O)Cc1ccc(C(=O)CSc2ccccc2)s1	PABP FP inh inconclusive, eIF4H FP inh inconclusive (no result: Yeast UUG start)
Fc1ccc(NC(=S)Nc2ccc(Br)cc2)cc1	PABP1 MLLE inh 40
CCOc1ccc(NC(=O)CSc2nnc(C)n2CC)cc1	Pemphigus Ab inh 78
O=C(O)CC(SCC(=O)Nc1ccccc1)C(=O)O (configuration not stated)	none (no result: Yeast UUG start)
O=C(CN1CCN(c2ccc(O)cc2)CC1)Nc1ccc(S(=O)(=O)N2CCCC2)cc1	Pemphigus Ab inh 73 (no result: PABP FP inh, eIF4H FP inh)
O=C(O)CC(SCC(=O)Nc1ccc(S(=O)(=O)N2CCCC2)cc1)C(=O)O (configuration not stated)	PABP1 MLLE inh 40
COc1cccc(Cn2nnc(C(=O)Nc3cc(C)ccc3OC)c2N)c1	Pemphigus Ab inh -1.1
COc1ccc(NC(=O)Cn2nnc(C(=O)NCc3ccccc3)c2N)cc1Cl	Pemphigus Ab inh 89
CCOc1ccc(Cn2nnc(C(=O)Nc3cc(C)cc(C)c3)c2N)cc1	Pemphigus Ab inh 72
CCOc1ccc(Cn2nnc(C(=O)Nc3cc(OC)cc(OC)c3)c2N)cc1	none
COc1ccc(NC(=O)Cn2nnc(C(=O)NCc3ccc(C)cc3)c2N)cc1Cl	none
O=C(NCC[C@@H]1CC[C@H](NC(=O)C2CCC2)[C@@H](CO)O1)c1cc(Cl)cc(Cl)c1	none (no result: PABP1 MLLE inh, PABP FP inh, eIF4H FP inh, Pemphigus Ab inh)
C/C(CC(=O)NC12CC3CC(CC(C3)C1)C2)=N\NC(=O)c1cnccn1	none (no result: Yeast UUG start)
O=C(NC12CC3CC(CC(C3)C1)C2)c1cnccn1	PABP1 MLLE inh 46
Oc1cc(NCCc2cccnc2)cc2cccnc12	PABP1 MLLE inh 50 (no result: PABP FP inh, eIF4H FP inh)
C[C@@H]1CCCCO[C@H](CN(C)Cc2ccc(C(F)(F)F)cc2)[C@@H](C)CN([C@@H](C)CO)C(=O)c2cc(NS(C)(=O)=O)ccc2O1	none (no result: PABP1 MLLE inh, PABP FP inh, eIF4H FP inh, Pemphigus Ab inh)
Nc1cc(-c2ccc(Cl)cc2)nn1S(=O)(=O)c1ccccc1	Pemphigus Ab inh 25
Cc1ccc(S(=O)(=O)N(C)C[C@@H]2Oc3ccc(NC(=O)CCC(F)(F)F)cc3CC(=O)N([C@H](C)CO)C[C@@H]2C)cc1	none (no result: PABP1 MLLE inh, PABP FP inh, eIF4H FP inh, Pemphigus Ab inh)
CNc1ccc(Cl)cc1C(N)=O	PABP FP inh active (no result: Pemphigus Ab inh)
CCCNC(=O)Nc1ccc2c(c1)C(=O)N(C)C[C@H](OC)[C@@H](C)CN(C(=O)C1CCC1)[C@H](C)CO2	none (no result: PABP1 MLLE inh, PABP FP inh, eIF4H FP inh, Pemphigus Ab inh)
O=C1NC(=S)S/C1=C\c1ccc(SCc2ccccc2)o1	PABP FP inh active, eIF4H FP inh 80
Cc1ccc2c(c1)-c1c(ssc1=S)C(C)(C)N2C(=O)c1ccco1	PABP1 MLLE inh 48
CC1(C)c2ssc(=S)c2-c2ccccc2N1C(=O)c1ccco1	none
Cc1ccc(/C([O-])=C(/C(=S)NCc2ccco2)[n+]2ccccc2)cc1	PABP FP inh active, eIF4H FP inh 76 (no result: PABP1 MLLE inh, Yeast UUG start, Pemphigus Ab inh)
COc1ccccc1/C=c1\sc2nc(-c3ccco3)nn2c1=O	PABP FP inh active, eIF4H FP inh 90 (no result: Yeast UUG start)
COc1cc(/C=c2\sc3nc(=O)c(-c4ccccc4)nn3c2=O)ccc1OCCC(C)C	none
CCOc1ccc(/C=c2\sc3nc(-c4ccco4)nn3c2=O)cc1OCC	PABP1 MLLE inh 43 (no result: Pemphigus Ab inh)
C[C@H]1CCCCO[C@H](CN(C)S(=O)(=O)c2ccc(Cl)cc2)[C@@H](C)CN([C@@H](C)CO)C(=O)c2cc(NC(=O)C3CCCCC3)ccc2O1	none (no result: PABP1 MLLE inh, PABP FP inh, eIF4H FP inh, Pemphigus Ab inh)
Cc1c(NC(=O)C(C)OC(=O)/C=C/c2ccco2)c(=O)n(-c2ccccc2)n1C (configuration not stated)	PABP FP inh active, eIF4H FP inh 78
COc1cccc(/C=C/C(=O)OC(C)C(=O)Nc2c(C)n(C)n(-c3ccccc3)c2=O)c1 (configuration not stated)	none (no result: Yeast UUG start)
C=CCSc1nc2ccccc2c2nc(-c3ccccc3)nn12	Pemphigus Ab inh 2.7 (no result: Yeast UUG start)
CCNS(=O)(=O)c1ccc(NC(=O)Cc2ccc(F)cc2)cc1	none
CC(Nc1ccc(F)cc1)=[N+](C)CCNS(=O)(=O)c1ccc(Cl)cc1	PABP FP inh active
CCOC(=O)COc1cccc2c(=O)n(CC(=O)N3CCCCC3)ccc12	PABP FP inh active, eIF4H FP inh 103 (no result: Yeast UUG start)
CN1C(=O)c2cc(NC(=O)c3ccccc3)ccc2OC[C@@H]2O[C@@H](CC(=O)NCC3CC3)CC[C@@H]21	none (no result: PABP1 MLLE inh, PABP FP inh, eIF4H FP inh, Pemphigus Ab inh)
CN(Cc1cc2ccccc2[nH]c1=O)S(C)(=O)=O	Pemphigus Ab inh 54
CN(Cc1cc2ccccc2[nH]c1=O)S(=O)(=O)c1ccccc1	none
Cc1ccc(Cn2cc(C(=O)c3ccc(F)cc3)c(=O)c3cc4c(cc32)OCCO4)cc1	Pemphigus Ab inh 0.5
COc1ccc(Cn2cc(C(=O)c3ccccc3)c(=O)c3cc(OC)ccc32)cc1	none
O=C(C[C@H]1C[C@@H]2c3cc(NC(=O)NC4CCCC4)ccc3O[C@@H]2[C@@H](CO)O1)NCc1ccccc1	none (no result: PABP1 MLLE inh, PABP FP inh, eIF4H FP inh, Pemphigus Ab inh)
Cc1ccc(S(=O)(=O)Nc2ccc3c(c2)C(=O)N([C@@H](C)CO)C[C@H](C)[C@H](CN(C)Cc2ccc(C(=O)O)cc2)OCCCC[C@@H](C)O3)cc1	none (no result: PABP1 MLLE inh, PABP FP inh, eIF4H FP inh, Pemphigus Ab inh)
O=C1N[C@H]2CC=C[C@H]2Nc2ccccc21	Pemphigus Ab inh 68 (no result: PABP FP inh, eIF4H FP inh)
O=C1N[C@H]2CC=C[C@H]2N(Cc2cccs2)c2ccccc21	none (no result: PABP FP inh, eIF4H FP inh)
CN(C)C(=O)C[C@H]1C[C@@H]2c3cc(NC(=O)c4ccc5c(c4)OCO5)ccc3O[C@@H]2[C@H](CO)O1	none (no result: PABP1 MLLE inh, PABP FP inh, eIF4H FP inh, Pemphigus Ab inh)
CCN(CC)S(=O)(=O)c1ccc(Nc2ccc(-c3ccc4c(c3)OCCO4)nn2)cc1	none (no result: Yeast UUG start)
CN(C)S(=O)(=O)c1ccc(Nc2ccc(-c3ccc4c(c3)OCCO4)nn2)cc1	Pemphigus Ab inh 69
C[C@H]1CN([C@@H](C)CO)C(=O)c2cccc(NC(=O)Nc3ccccc3)c2O[C@@H]1CN(C)C	none (no result: PABP1 MLLE inh, PABP FP inh, eIF4H FP inh, Pemphigus Ab inh)
NC(=O)SCC(=O)Nc1ccc(Cl)c(Cl)c1	PABP1 MLLE inh 41 (no result: Yeast UUG start)
Cc1ccc(NC(=O)CSC(N)=O)cc1Cl	PABP1 MLLE inh 41 (no result: Yeast UUG start)
NC(=O)SCC(=O)Nc1ccc(Cl)cc1	none
Cc1cc(C)n2cc(CSc3nnc(N)s3)nc2n1	PABP1 MLLE inh 40
COc1cc(C2C3=C(Nc4nc(N)[nH]c(=O)c42)c2ccccc2C3=O)ccc1O (configuration not stated)	PABP FP inh active, eIF4H FP inh 93
O=C(O)[C@@H]1[C@@H](CO)[C@@H]2Cn3c(ccc(-c4cncnc4)c3=O)[C@@H]2N1C(=O)C1CCC1	none (no result: PABP1 MLLE inh, PABP FP inh, eIF4H FP inh, Pemphigus Ab inh)
O=C(CSc1nc(O)cc(=O)n1-c1ccccc1)Nc1ccc2c3c(cccc13)CC2	PABP FP inh active, eIF4H FP inh 71, Pemphigus Ab inh 41
Cc1c(O)nc(SCC(=O)Nc2ccc3c4c(cccc24)CC3)n(-c2ccccc2)c1=O	none (no result: Yeast UUG start)
Cc1noc(C)c1NC(=O)N(C)C[C@H]1Oc2ccc(NC(=O)NC3CCCCC3)cc2CC(=O)N([C@H](C)CO)C[C@H]1C	none (no result: PABP1 MLLE inh, PABP FP inh, eIF4H FP inh, Pemphigus Ab inh)
CCCC#Cc1ccc([C@@H]2[C@@H](C#N)N(C(=O)C3CCC3)[C@@H]2CO)cc1	none (no result: PABP1 MLLE inh, PABP FP inh, eIF4H FP inh, Pemphigus Ab inh)
Cc1nc(S/C(=C/c2ccc(-c3ccc(C(=O)O)cc3)o2)C(=O)O)n[nH]1	PABP FP inh active

Screening results (PubChem)
